{
  "source": "patent US20180125068A1",
  "about": "“OCTANOIC, NONANOIC AND DECANOIC FATTY ACIDS WITH PYRETHROID ADULTICIDES” (priority 2016, published 2018)",
  "system": "Cimex lectularius resistant to deltamethrin (Lex8 strain)",
  "details": "observed, d-Phenothrin 0.375% alone",
  "procedure": "Synergy was calculated using Abbott's synergy equation described in Levy Y et al., The joint action of fungicides in mixtures: comparison of two methods for synergy calculation, Bulletin OEPP/EPPO Bulletin, 1986, 16, 651-657. Specifically, a ratio greater than 1.0 of observed to expected percent mortality for combinations of two pesticides is evidence of synergy. Expected % mortality was calculated using the formula % Cexp=A+B−[…] where A is percent mortality of A. aegypti exposed to C8, 9, 10, B is percent mortality of A. aegypti exposed to permethrin and Cexp is expected percent mortality of A. aegypti exposed to a combination of C8, 9, 10 and permethrin.\nThe actives were suspended in 1 milliliter oil-based ultra-low volume sprays and sprayed into the wind tunnel. This exposed 10 adult male beg bugs to the spray. Each test was replicated three times. 1, 2, 3 and 4-day mortality of the bed bugs was then observed.",
  "note": "Read-outs that look alike come from different tables or passages of the source.",
  "data": [
    {"smiles": "CC(C)=CC1C(C(=O)OCc2cccc(Oc3ccccc3)c2)C1(C)C", "note": "(stereo not drawn) [d-Phenothrin, Sumithrin (d-phenothrin)]", "values": [
      {"measurement": "% Mortality", "setting": "3 days", "result": 13.3, "unit": "%"},
      {"measurement": "% Mortality", "setting": "4 days", "result": 13.3, "unit": "%"}
    ]}
  ]
}
